Source: PubChem
Env fusion inh: inhibitors of HIV Env-mediated cell fusion. HeLa-JRFL Env/CEM21 cell fusion, luciferase. 1.1% of 360,000 active. AID 651610. inhibition, % at 12.3 µM;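 active means mean replicate inhibition score of at least 50 and every replicate individually at or above 50; inconclusive means only one of the two criteria met; inactive means mean below 50 and not all replicates reaching 50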;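 further: 0% = plate neutral controls and 100% = maraviroc near 300 nM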
UUG fidelity: modulators of yeast start codon fidelity, primary screen, whole organism, S. cerevisiae, single point, plate reader; S. cerevisiae UUG-firefly luciferase reporter, luminescence/redox ratio; activity score, % at 18.7 µM; actives 0.13% (n = 350,000); AID 602363, 2012;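 active = replicate mean at a twofold rise or more, about +100% in these data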;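 also: firefly luciferase made from a UUG start codon reports start codon fidelity; reporter light over untreated wells divided by growth signal over untreated wells; some hits fall short of that in this replicate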
PGC1a acetyl inh: PGC1a acetylation modulation, inhibitor mode; U2OS PGC1a acetylation, AlphaScreen anti-acetyl-lysine; with virally co-expressed GCN5 acetyltransferase; inhibition, % at 15.6 µM; 0.17% of 350,000 active;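 active means every replicate shows inhibition of at least 40%; inconclusive means mean inhibition at least 40% but some replicate below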;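 further: 0% = neutral control wells and 100% = positive control wells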
Cneo AK release: Cryptococcus neoformans lysis via adenylate kinase release. 0.2% of 360,000 active. lysis activity, % at 15 µM. C. neoformans lysis, adenylate kinase release luminescence, 4 h; normalised: neutral wells 0, clomiphene wells 100;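 active means mean lysis activity across replicates of at least 80%, whatever share of replicates individually reach that level; inactive means mean lysis activity below 80%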
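Material: C. neoformans cells; Schedule: 4 h static compound exposure, 37 °C, read 1 h post-reagent; Measured by: adenylate kinase release luminescence; Read-out: signal increase indicating cell lysis; Controls: Clomiphene as positive lysis control.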
miR122 inh: miR-122 inhibition in Huh7 cells; activation (reporter increase), % at 12.5 µM; 0.3% of 340,000 active; Huh7 miR-122 Renilla luciferase sensor, 48 h; neutral wells = 0, positive control = 100;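 active means mean replicate activation score at least 90 and every replicate individually at or above 90; inconclusive means only one of the two criteria met; inactive means neither criterion met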;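 further: higher luciferase means less miR-122 activity so hits act as miR-122 inhibitors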
FN deposition inh: fibronectin deposition inhibition; AH1F fibroblasts, Alexa488-fibronectin deposition fluorescence, overnight; inhibition, % at 12.6 µM; 0.086% of 350,000 active; AID 743247;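 active means mean inhibition across replicates of 30% or more, regardless of how many single replicates reach that level; inconclusive means mean under 30% yet at least half of replicates reach 30%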;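 further: positive control wells lacked labelled fibronectin entirely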
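test system = AH1F fibroblasts assembling fluorescent fibronectin matrix | quantity = 10000 AH1F cells per well | buffer or medium = DMEM plus 2% serum, read in PBS | doses = single dose, pinned | incubation = 1 h cell attachment, overnight exposure to compound and label | detection = fluorescence at 485 nm excitation, 525 nm emission | read-out basis = inhibition from reduced deposited-fibronectin fluorescence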
Starred values were filed as active, the others as inactive; ? = inconclusive; · = no result; ! = a repeat was not active; [ ] = remark or other dose. This is a sample that favours compounds with a hit; in the whole collection about 1.5% have one here.

Letters: A = Env fusion inh; B = UUG fidelity; C = PGC1a acetyl inh; D = Cneo AK release; E = miR122 inh; F = FN deposition inh
C[C@H](CO)N1C[C@H](C)[C@@H](CN(C)CC2CCCCC2)Oc2c(NC(=O)C3CC3)cccc2C1=O
  A = 36[16.7 µM]	B = -7	C = -8	D = 0	E = 114*![16.7 µM]	F = 6

C[C@H](CO)N1C[C@H](C)[C@@H](CN(C)S(C)(=O)=O)Oc2c(NC(=O)Cc3ccccc3)cccc2C1=O
  A = -38	B = 15	C = ·	D = 17	E = 13	F = 30*

C[C@@H]1CN([C@H](C)CO)C(=O)c2cccc(NC(=O)C3CC3)c2O[C@H]1CN(C)CC1CCCCC1
  A = 56[16.7 µM]	B = 0	C = 4	D = 0	E = 37[16.7 µM]	F = ·

O=C(COC(=O)c1c[nH]c2ccccc12)NCc1ccccc1
  A = 4	B = -34	C = 8	D = 1	E = -7	F = ·

CN(Cc1cnc2nc(N)nc(N)c2n1)c1ccc(C(=O)N[C@@H](CCC(=O)O)C(=O)O)cc1
  A = 62*!	B = 6	C = 43*!	D = -1	E = -9	F = -5

S=c1[nH]nc(C2CCCCC2)n1/N=C/c1ccncc1
  A = 56*	B = ·	C = ·	D = ·	E = ·	F = 7

CCC(=O)Nc1ccc2c(c1)C(=O)N(C)[C@@H]1CC[C@H](CC(=O)N3CCCCC3)O[C@H]1CO2
  A = -16[16.7 µM]	B = -14	C = 11	D = -5	E = 0[16.7 µM]	F = -8

CC=Cc1ccc2n(c1=O)C[C@H]1[C@H](CO)[C@@H](C(=O)N3CCOCC3)N(CC3CC3)[C@@H]21 (mixture of isomers)
  A = ·	B = ·	C = ·	D = 84*	E = ·	F = ·

CC=Cc1ccc2n(c1=O)C[C@H]1[C@H](CO)[C@@H](C(=O)N3CCc4ccccc4C3)N(C(=O)C3CC3)[C@@H]21 (mixture of isomers)
  A = 23[16.7 µM]	B = ·	C = ·	D = 90*	E = ·	F = ·

CC=Cc1ccc2n(c1=O)C[C@H]1[C@H](CO)[C@@H](C(=O)N3CCc4ccccc4C3)N(C(=O)CC)[C@@H]21 (mixture of isomers)
  A = ·	B = ·	C = ·	D = 3	E = -5[16.7 µM]	F = ·

CC=Cc1ccc2n(c1=O)C[C@@H]1[C@@H](CO)[C@H](C(=O)N3CCCCC3)N(Cc3ccccc3)[C@H]21 (mixture of isomers)
  A = ·	B = ·	C = 4	D = 106*	E = 41[16.7 µM]	F = ·

Cc1ccc(-n2nnnc2SCC(=O)N2Cc3ccccc3CC2C(=O)O)cc1 (stereo not given)
  A = -3	B = -2	C = 12	D = -5	E = 3	F = -11

CCOC(=O)N1c2ccccc2Sc2ccccc21
  A = -7	B = ·	C = 4	D = ·	E = -5	F = -3

Cc1nnc(SC(=O)N2c3ccccc3Sc3ccccc32)s1
  A = 69*	B = -14	C = 34	D = -4	E = -8	F = 11

CCO[C@@H]1OC(C(N)=O)=C[C@H](C2CCCCC2)[C@H]1CCCO
  A = 7	B = 3	C = -9	D = 2	E = 0	F = -7

CN(Cc1cnn(-c2ccccc2)c1)C(=O)c1cccc(S(=O)(=O)N(C)c2ccccc2)c1
  A = 13	B = 33	C = -7	D = 2	E = 38	F = ·

Cc1ccc(N(C)S(=O)(=O)c2cccc(C(=O)N(C)Cc3cnn(-c4ccccc4)c3)c2)cc1
  A = 63*	B = 2	C = ·	D = 0	E = -3	F = 3

COCC(=O)Nc1ccc2c(c1)C(=O)N(C)[C@H]1CC[C@@H](CC(=O)O)O[C@@H]1CO2
  A = -6[16.7 µM]	B = -13	C = 1	D = 1	E = 4[16.7 µM]	F = -2

Cc1nn(C)cc1NC(=O)C[C@H]1CC[C@@H]2[C@@H](COc3ccc(NC(=O)C4CCC4)cc3C(=O)N2C)O1
  A = 60*[16.7 µM]	B = -2	C = 6	D = ·	E = 2[16.7 µM]	F = -17

CN1C(=O)c2cc(NC(=O)c3ccccc3)ccc2OC[C@@H]2O[C@H](CC(=O)NC3CCCC3)CC[C@H]21
  A = ·	B = 14	C = 3	D = -1	E = -6[16.7 µM]	F = -9

COCC(=O)Nc1ccc2c(c1)C(=O)N(C)[C@H]1CC[C@@H](CC(=O)O)O[C@H]1CO2
  A = -26[16.7 µM]	B = -14	C = -1	D = 1	E = 262*[16.7 µM]	F = 10

CCC(=O)Nc1ccc2c(c1)C(=O)N(C)[C@H]1CC[C@H](CC(=O)NC3CCCC3)O[C@H]1CO2
  A = 57*[16.7 µM]	B = -5	C = -4	D = -2	E = 3[16.7 µM]	F = -12

CN1C(=O)c2cc(NC(=O)c3cccc(Cl)c3)ccc2OC[C@H]2O[C@@H](CC(=O)NC3CCCCC3)CC[C@H]21
  A = 56*[16.7 µM]	B = -3	C = -2	D = -2	E = 8[16.7 µM]	F = -11

Cc1ccccc1NS(=O)(=O)c1ccc(C(=O)N2CCCCCC2)cc1
  A = 21	B = 25	C = ·	D = 1	E = 16	F = 1

CC(C)CNC(=O)CC1Nc2ccccc2NC1=O (stereo not given)
  A = ·	B = -8	C = 3	D = 2	E = ·	F = ·

Arranged by the number under Env fusion inh (smallest number first): 3 from the list above
Structure,Env fusion inh
CCOC(=O)N1c2ccccc2Sc2ccccc21,-7
CCO[C@@H]1OC(C(N)=O)=C[C@H](C2CCCCC2)[C@H]1CCCO,7
Cc1ccc(N(C)S(=O)(=O)c2cccc(C(=O)N(C)Cc3cnn(-c4ccccc4)c3)c2)cc1,63*

Following part:
Letters: A = Env fusion inh; B = UUG fidelity; C = PGC1a acetyl inh; D = Cneo AK release; E = miR122 inh; F = FN deposition inh
COc1ccccc1NC(=O)CSc1nc2ncccc2[nH]1
  A = ·	B = -17	C = -4	D = 2	E = 0	F = ·

CCOC(=O)C1CCCN(CCC(=O)Nc2cccc(F)c2)C1 (stereo not given)
  A = ·	B = -13	C = -13	D = 1	E = -4	F = ·

CN1C(=O)c2cc(NC(=O)NC3CCCC3)ccc2OC[C@H]2O[C@@H](CC(=O)O)CC[C@H]21
  A = ·	B = 3	C = 5	D = 37	E = 138*[16.7 µM]	F = 2

CN1C(=O)c2cc(NC(=O)Cc3ccccc3)ccc2OC[C@@H]2O[C@H](CC(=O)NC3CCC3)CC[C@@H]21
  A = ·	B = 7	C = -2	D = -3	E = 125*[16.7 µM]	F = -42

CN1C(=O)c2cc(NC(=O)Cc3ccccc3)ccc2OC[C@@H]2O[C@@H](CC(=O)NC3CCC3)CC[C@H]21
  A = ·	B = 11	C = -1	D = 0	E = -12[16.7 µM]	F = -10

CN1C(=O)c2cc(NC(=O)NC3CCCC3)ccc2OC[C@@H]2O[C@H](CC(=O)O)CC[C@@H]21
  A = ·	B = 3	C = -3	D = 5	E = 10[16.7 µM]	F = -1

CN1C(=O)c2cc(NC(=O)NC3CCCC3)ccc2OC[C@@H]2O[C@H](CC(=O)NC3CCC3)CC[C@@H]21
  A = 71*[16.7 µM]	B = ·	C = -5	D = ·	E = 2[16.7 µM]	F = 0

Nc1ccc2nc(C(F)(F)F)[nH]c2c1
  A = 13	B = ·	C = ·	D = ·	E = ·	F = ·

O=C(CCc1c[nH]c2ccccc12)N=Nc1c(O)[nH]c2ccccc12
  A = -23	B = -9	C = 5	D = -3	E = 0	F = 8

COc1ccccc1N(CC(=O)Nc1cccc(C(F)(F)F)c1)S(C)(=O)=O
  A = -79	B = -7	C = 6	D = -5	E = 3	F = ·

Cc1ccc([N+](=O)[O-])cc1N(CC(=O)Nc1ccc(S(=O)(=O)Nc2cccc(C(F)(F)F)c2)cc1)S(C)(=O)=O
  A = ·	B = 0	C = ·	D = -3	E = 123*	F = ·

CC(C)(C)NC(=O)COC(=O)c1snc(C(=O)NC2CCCCC2)c1N
  A = 101*	B = -7	C = 11	D = 1	E = -13	F = -14

C/C(CC(=O)Nc1ccccn1)=N\NC(=O)c1cccc(C)c1
  A = 3	B = ·	C = -5	D = ·	E = ·	F = 3

NC(=O)c1sc2nc3c(c(-c4cccs4)c2c1N)CCCCC3
  A = 126*	B = -24	C = ?	D = 8	E = 15	F = 9

Cc1ccc(C(=O)NC(=S)Nc2ccc(Oc3ccc(Cl)cc3)cc2)cc1
  A = ·	B = -5	C = 11	D = 6	E = -6	F = ·

C=CCn1c(SCC(=O)N2CCCC2)nc2scc(-c3cccs3)c2c1=O
  A = -9	B = -14	C = -17	D = -3	E = -7	F = -1

COc1ccccc1NC(=O)Nc1cnccn1
  A = 30	B = ·	C = 0	D = ·	E = -19	F = 1

COc1cc([N+](=O)[O-])ccc1NC(=O)Nc1cnccn1
  A = 58*	B = -9	C = 0	D = 0	E = -7	F = ·

Another view of 2 compounds above:
Under each structure: Env fusion inh, UUG fidelity, PGC1a acetyl inh, Cneo AK release, miR122 inh, FN deposition inh
- CN1C(=O)c2cc(NC(=O)Cc3ccccc3)ccc2OC[C@@H]2O[C@H](CC(=O)NC3CCC3)CC[C@@H]21
    ·, 7, -2, -3, 125*[16.7 µM], -42
- CN1C(=O)c2cc(NC(=O)NC3CCCC3)ccc2OC[C@@H]2O[C@H](CC(=O)NC3CCC3)CC[C@@H]21
    71*[16.7 µM], ·, -5, ·, 2[16.7 µM], 0
